This is a selection; strong and weak results do not stand in their true shares. Active and inactive are the calls of the source. Rule as the data show it: active = normalized activity above about 1.9%; inactive = the rest.
Molecular target: F-box/WD repeat-containing protein 7 (Homo sapiens) (UniProt Q969H0)
Test: FBW7 E3 ligase activators, primary screen, biochemical, AlphaScreen, human (AID 1259310);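 also: purified mutant Fbw7 with reduced substrate affinity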
Conditions: AlphaScreen FBW7–phospho-cyclin E peptide binding, activator screen; at 26.1 µM; hits give high values

Amino acid sequences for entries named in this document (tags omitted).
UniProt Q969H0, whole entry, looked up: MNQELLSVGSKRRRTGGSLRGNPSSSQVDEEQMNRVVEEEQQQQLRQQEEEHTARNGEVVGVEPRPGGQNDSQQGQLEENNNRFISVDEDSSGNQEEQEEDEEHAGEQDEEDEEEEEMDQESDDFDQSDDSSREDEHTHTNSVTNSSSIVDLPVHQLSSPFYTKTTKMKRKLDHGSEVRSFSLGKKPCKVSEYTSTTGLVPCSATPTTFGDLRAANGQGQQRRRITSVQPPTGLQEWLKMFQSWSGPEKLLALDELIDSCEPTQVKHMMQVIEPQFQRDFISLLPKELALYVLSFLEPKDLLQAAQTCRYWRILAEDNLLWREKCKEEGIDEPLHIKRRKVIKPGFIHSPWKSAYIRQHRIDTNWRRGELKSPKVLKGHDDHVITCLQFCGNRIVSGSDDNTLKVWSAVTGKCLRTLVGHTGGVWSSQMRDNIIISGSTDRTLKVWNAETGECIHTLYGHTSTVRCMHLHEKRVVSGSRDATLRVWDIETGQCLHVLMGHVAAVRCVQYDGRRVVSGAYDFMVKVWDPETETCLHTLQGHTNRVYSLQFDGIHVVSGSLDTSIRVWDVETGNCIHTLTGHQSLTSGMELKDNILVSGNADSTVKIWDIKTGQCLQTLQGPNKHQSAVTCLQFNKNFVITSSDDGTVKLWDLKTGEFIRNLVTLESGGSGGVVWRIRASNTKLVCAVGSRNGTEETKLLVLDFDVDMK

Compound | normalized activity (activation)
O=C(Nc1cccc(F)c1)N(Cc1ccco1)C1CCN(CCc2cccs2)CC1 | inactive: 0.23%
O=C(COc1ccccc1[N+](=O)[O-])N/N=C/c1cc([N+](=O)[O-])cc([N+](=O)[O-])c1O | inactive: -0.15%
C/C(=N\Nc1ccc([N+](=O)[O-])cc1[N+](=O)[O-])c1ccc([N+](=O)[O-])cc1 | inactive: -0.07%
O=C(OC1CN2CCC1CC2)c1cccc(Cl)c1 (stereo unspecified) | inactive: 0.66%
CCOc1ccc(S(=O)(=O)N(CCCl)CCCl)cc1 | inactive: 1.27%
CC(C)OP(=O)(OC(C)C)N1CCCCC1 | inactive: -0.14%
COC(=O)N(c1ccccc1)P1OCC(C)O1 (stereo unspecified) | inactive: 0.64%
CCOC(=O)C(C)NC(=O)CSP(=O)(OCC)OCC (stereo unspecified) | inactive: 0.08%
Nc1nonc1OCc1nonc1COc1nonc1N | inactive: -0.03%
O=c1c2cc([N+](=O)[O-])ccc2[nH]c2c([N+](=O)[O-])cc([N+](=O)[O-])cc12 | inactive: 0.12%
CC(=O)N(Cc1ccco1)C1CCN(CCc2ccccn2)CC1 | inactive: 0.2%
COc1ccc([N+](=O)[O-])cc1NC(=O)c1ccc([N+](=O)[O-])cc1[N+](=O)[O-] | inactive: -0.07%
CCOP(=S)(NN(CCCl)c1ccccc1)OCC | inactive: -0.1%
CN(C(=O)Cc1ccc(Cl)c(Cl)c1)[C@@H]1CCCC[C@@H]1N1CCCC1 | inactive: 0.1%
O=C(c1ccco1)N(Cc1cccnc1)C1CCN(CCc2ccccn2)CC1 | inactive: 0.05%
CC(=O)O[C@H]1CN2CCC1[C@@H](c1ccccc1)C2 (stereo partly specified) | inactive: -0.01%
CCOP(=O)(OCC)C(=O)c1ccccc1I | inactive: -0.28%
O=C(Nc1cccc(F)c1)N(Cc1cccnc1)C1CCN(CCc2cccs2)CC1 | inactive: -0.16%
COC(=O)N(c1ccccc1)P1(=S)OCC(C)O1 (stereo unspecified) | inactive: 1.02%
O=P1(c2ccccc2)N=C(c2ccccc2)NC(C(Cl)(Cl)Cl)=N1 (stereo unspecified) | inactive: -0.06%
O=[N+]([O-])c1ccc(N/N=C/c2ccc([N+](=O)[O-])o2)c([N+](=O)[O-])c1 | inactive: -0.08%
ClC1CSc2nc3ccccc3n2C1 (stereo unspecified) | inactive: -0.1%
O=C(NNc1ccc([N+](=O)[O-])cc1[N+](=O)[O-])c1cccc([N+](=O)[O-])c1 | inactive: -0.22%

Compound | normalized activity (activation)
O=C(c1cccc([N+](=O)[O-])c1)c1ccc([N+](=O)[O-])c([N+](=O)[O-])c1 | inactive: -0.49%
O=C(COC(=O)C(O)(c1ccccc1)c1ccccc1)NC12CC3CC(CC(C3)C1)C2 | inactive: -0.04%
Cc1c([N+](=O)[O-])cc(C(=O)c2cc([N+](=O)[O-])c(C)c([N+](=O)[O-])c2)cc1[N+](=O)[O-] | inactive: 0.36%
CN(C)c1ccc2c(c1)N1Cc3ccccc3C1=NP2(=O)c1ccccc1 (stereo unspecified) | inactive: -0.09%
CC(C)OP(=O)(OC(C)C)C(C)N (stereo unspecified) | inactive: 0.68%
CCOP1(=O)O/C(=C\Cl)CN1c1ccccc1 (stereo unspecified) | inactive: 0.07%
O=[N+]([O-])c1ccc(NCCCCNc2ccc([N+](=O)[O-])cc2[N+](=O)[O-])c([N+](=O)[O-])c1 | inactive: -0.03%
CCOP(=O)(OCC)C(NC(=O)OC)C(Cl)(Cl)Cl (stereo unspecified) | inactive: -0.06%
Cc1ccc2nc(NCCCl)[nH]c2c1 | inactive: -0.26%
CCOC(=O)c1ccc(NC2=NCC(CBr)S2)cc1 (stereo unspecified) | inactive: 1.46%
O=C(NNC1=NCC(CBr)S1)c1ccccc1 (stereo unspecified) | inactive: 0.02%
COC(=O)C(CC(C)C)NC(=O)NP(=O)(Oc1ccccc1)Oc1ccccc1 (stereo unspecified) | inactive: 0.13%
O=[N+]([O-])c1cc([N+](=O)[O-])c(N(CC(O)CO)c2ccccc2)c([N+](=O)[O-])c1 (stereo unspecified) | inactive: -0.27%
CCOP(=O)(OCC)C(OC(=O)C(Cl)(Cl)Cl)=C(Cl)Cl | inactive: -0.18%
O=C(c1cccnc1)N(Cc1ccco1)C1CCN(CCc2ccccn2)CC1 | inactive: 0.07%
Cc1cc(NC2=NC3C(C(=O)N(C)C(=O)N3C)N2C)n(-c2ccccc2)n1 (stereo unspecified) | inactive: 0.54%
CNc1c([N+](=O)[O-])cc([N+](=O)[O-])c2nonc12 | inactive: 0.54%
CN(C)c1ccc(/[N+]([O-])=C/c2c([N+](=O)[O-])cc([N+](=O)[O-])cc2[N+](=O)[O-])cc1 | inactive: -0.41%
O=P1(Nc2nncs2)C=C(c2ccccc2)SC(c2ccccc2)=C1 | inactive: -0.02%
O=P1(Nc2nc3ccc(Cl)cc3s2)COc2ccccc2O1 (stereo unspecified) | inactive: 0.14%
Cc1ccc([N+](=O)[O-])c2no[n+]([O-])c12 | inactive: -0.77%
CCOP(=O)(Nc1cccc2ccccc12)OCC | inactive: 0.06%
CCC(C(=O)OC1CN2CCC1CC2)c1ccccc1 (stereo unspecified) | inactive: -0.01%

Compound | normalized activity (activation)
O=C(c1cccnc1)N(Cc1cccnc1)C1CCN(CCc2cccs2)CC1 | inactive: 0.53%
O=C(Nc1cccc([N+](=O)[O-])c1)c1ccc([N+](=O)[O-])cc1[N+](=O)[O-] | inactive: -0.03%
Cc1ccc(NCCc2c([N+](=O)[O-])cc([N+](=O)[O-])cc2[N+](=O)[O-])cc1 | inactive: 0.5%
CCOC(=O)C(C(=O)OCC)C(O)c1c([N+](=O)[O-])cc([N+](=O)[O-])cc1[N+](=O)[O-] (stereo unspecified) | inactive: -0.13%
O=C(N/N=C\c1ccc([N+](=O)[O-])cc1)c1cc([N+](=O)[O-])cc([N+](=O)[O-])c1O | inactive: 0.57%
COP(=O)(Nc1ccc(C)cc1)OC | inactive: -0.08%
Cc1cc(Br)c(Nc2c([N+](=O)[O-])cc([N+](=O)[O-])c3nonc23)cc1[N+](=O)[O-] | inactive: -0.01%
Cc1cccc(OCC(=O)OC2CN3CCC2CC3)c1 (stereo unspecified) | inactive: 0.05%
CC(C)OP(=O)(OC(C)C)C(=O)c1ccco1 | inactive: 0%
BrCC1CN=C(Nc2ccccc2)S1 (stereo unspecified) | inactive: -0.37%
COc1cc(-n2cnnn2)ccc1-n1cnnn1 | inactive: -0.08%
CN(C(=O)Cc1ccc(Cl)c(Cl)c1)[C@@H]1CC[C@]2(CCCO2)C[C@H]1N1CCCC1 | inactive: 0.05%
CCOP1(=O)N=C(c2ccc(Br)cc2)NC(=O)N1 (stereo unspecified) | inactive: 0.04%
Cc1cc(NC(=O)NP(=O)(O)O)n(-c2ccccc2)n1 | inactive: 0.18%
CCOC(=O)NC(Sc1cc(C)ncn1)C(Cl)(Cl)Cl (stereo unspecified) | inactive: 0.07%
O=[N+]([O-])c1ccc(Nc2ccc([N+](=O)[O-])cc2[N+](=O)[O-])c(O)c1 | inactive: -0.3%
CN(C(=O)Cc1ccccc1)[C@@H]1CC[C@]2(CCCO2)C[C@H]1N1CCCC1 | inactive: 0.07%
Cc1ccnc(NP2(=O)C=C(c3ccccc3)OC(c3ccccc3)=C2)c1 | inactive: 0.11%
CC1(C)Nc2ccccc2OP1(=O)c1ccccc1 (stereo unspecified) | inactive: -0.1%
O=[N+]([O-])c1cccc(P(=O)(Nc2ccccn2)c2cccc([N+](=O)[O-])c2)c1 | inactive: 0.02%
O=C(Oc1ccc([N+](=O)[O-])cc1[N+](=O)[O-])c1cc([N+](=O)[O-])cc([N+](=O)[O-])c1 | inactive: 0.11%
CC(=O)c1cccc(NC(=O)N(Cc2ccco2)C2CCN(CCc3ccccn3)CC2)c1 | inactive: 0.15%
NC(=O)c1nsnc1NCCCl | inactive: 0.17%

Compound | normalized activity (activation)
O=[N+]([O-])c1ccc(N/N=C/c2ccc(Cl)c([N+](=O)[O-])c2)c([N+](=O)[O-])c1 | inactive: 0%
Cc1ccc(NC2=NCC(CBr)S2)cc1 (stereo unspecified) | inactive: -0.16%
O=C(COC(=O)C(O)(c1ccccc1)c1ccccc1)NC(=O)NCc1ccccc1 | inactive: -0.03%
NC(=O)Nc1ccc([As](=O)(O)O)cc1 | inactive: 0.06%
Cc1ncc(-c2ccccc2)c2ccccc12 | inactive: -0.01%
Cn1cnc([N+](=O)[O-])c1SCCCl | inactive: -0.07%
CCOc1ccc2nc(NCCCl)[nH]c2c1 | inactive: -0.39%
CC(=O)NC(SC1=NCCS1)C(Cl)(Cl)Cl (stereo unspecified) | inactive: 0.19%
O=P(Nc1ccccn1)(c1ccccc1)c1ccccc1 | inactive: 0.05%
O=P(Nc1nccs1)(c1ccccc1)c1nc2ccccc2s1 (stereo unspecified) | inactive: 0.23%
O=P(Nc1nccs1)(Oc1ccccc1)Oc1ccccc1 | inactive: 0%
NC(=O)COC(=O)C1(O)c2ccccc2-c2ccccc21 | inactive: -0.14%
CCOP1(=O)Oc2ccccc2OC1c1ccccc1 (stereo unspecified) | inactive: 0.02%
Cc1c(N=Cc2ccc([N+](=O)[O-])cc2)cc([N+](=O)[O-])cc1[N+](=O)[O-] | inactive: 0.14%
O=C(Nc1cccc(F)c1)N(Cc1cccnc1)C1CCN(CCc2ccccn2)CC1 | inactive: 0.51%
CC1(C)COP(=S)(N(C2=NCCC2)c2ccccc2)OC1 | inactive: 0.14%
CC(C)OP(=O)(Nc1ccc(Br)cc1)OC(C)C | inactive: 0.23%
CCCCOP(=O)(Nc1cccc(F)c1)OCCCC | inactive: -0.11%
COc1cc([N+](=O)[O-])cc([N+](=O)[O-])c1OCC(=O)N/N=C/c1ccc([N+](=O)[O-])o1 | inactive: -0.04%
O=[N+]([O-])c1ccc(NCCN(CCO)c2ccc([N+](=O)[O-])cc2[N+](=O)[O-])c(Cl)c1 | inactive: -0.3%
O=[N+]([O-])c1ccc(N/N=C/c2ccc([N+](=O)[O-])s2)c([N+](=O)[O-])c1 | inactive: 0.11%
CC(=Nc1cc([N+](=O)[O-])ccc1C)NNc1ccc([N+](=O)[O-])cc1[N+](=O)[O-] | inactive: -0.01%

Source: PubChem BioAssay AID1259310 (The Scripps Research Institute Molecular Screening Center, 2017)
